Target: T1, recombinant human TNFα (human, UniProt P01375 77-233, 125I label in the receptor-blocking assay only)
T1 construct: also called huTNFα; tumor necrosis factor alpha
Assay: competition: 125I-TNFα (5 ng/ml) preincubated with anti-IL-18 control supernatant spiked with cA2, then bound to plate-coated p55-sf2, gamma counting; blocked partner p55-sf2

By UniProt entry, the sequences of proteins in these tests, tags left out. Residues count along the entry.
UniProt P01375, 77-233 limits assumed: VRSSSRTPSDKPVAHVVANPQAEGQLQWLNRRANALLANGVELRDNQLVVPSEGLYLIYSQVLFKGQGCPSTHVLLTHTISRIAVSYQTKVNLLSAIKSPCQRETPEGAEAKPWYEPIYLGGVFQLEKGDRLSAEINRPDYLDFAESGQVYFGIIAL

B1: chimeric antibody cA2 (antibody, V domains shown)
VH: EVKLEESGGGLVQPGGSMKLSCVASGFIFSNHWMNWVRQSPEKGLEWVAEIRSKSINSATHYAESVKGRFTISRDDSKSAVYLQMTDLRTEDTGVYYCSRNYYGSTYDYWGQGTTLTVS
VL: DILLTQSPAILSVSPGERVSFSCRASQFVGSSIHWYQQRTNGSPRLLIKYASESMSGIPSRFSGSGSGTDFTLSINTVESEDIADYYCQQSHSWPFTFGSGTNLEVK
Which “IC50 (read off the curve)” value does the source give for B1 here?
Its value is about 10 ng/mL.
